Measured values reported in paper PMC4365786 (Chemistry & biology, 2015).

Tested on: MDA-MB-231 cells
Experiment: Wound healing cell migration assay
Assay type: cell-based
Settings: MDA-MB-231 monolayer scratch; UF010 at 1 μM

Structure (SMILES): O=C(CCCCCCC(=O)Nc1ccccc1)NO [SAHA, vorinostat, reference compound]
- effect on cell migration: did not significantly affect
